pEC50, pKi: −log10 of the molar value.
Columns and labels:
ER-alpha = ER-alpha (Homo sapiens, UniProt P03372); assay: ER-alpha transactivation (ERE-LUC luciferase) in HEK-293 cells;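 further: HEK-293 cells co-transfected with an ER-alpha expression plasmid, an ERE-driven firefly luciferase reporter and a CMV Renilla control, with the firefly signal normalized to Renilla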
ER-α = ER-α (Homo sapiens, UniProt P03372)

By UniProt entry, the sequences of proteins in these tests, tags left out. Residues count along the entry.
UniProt P03372, whole entry, species assumed: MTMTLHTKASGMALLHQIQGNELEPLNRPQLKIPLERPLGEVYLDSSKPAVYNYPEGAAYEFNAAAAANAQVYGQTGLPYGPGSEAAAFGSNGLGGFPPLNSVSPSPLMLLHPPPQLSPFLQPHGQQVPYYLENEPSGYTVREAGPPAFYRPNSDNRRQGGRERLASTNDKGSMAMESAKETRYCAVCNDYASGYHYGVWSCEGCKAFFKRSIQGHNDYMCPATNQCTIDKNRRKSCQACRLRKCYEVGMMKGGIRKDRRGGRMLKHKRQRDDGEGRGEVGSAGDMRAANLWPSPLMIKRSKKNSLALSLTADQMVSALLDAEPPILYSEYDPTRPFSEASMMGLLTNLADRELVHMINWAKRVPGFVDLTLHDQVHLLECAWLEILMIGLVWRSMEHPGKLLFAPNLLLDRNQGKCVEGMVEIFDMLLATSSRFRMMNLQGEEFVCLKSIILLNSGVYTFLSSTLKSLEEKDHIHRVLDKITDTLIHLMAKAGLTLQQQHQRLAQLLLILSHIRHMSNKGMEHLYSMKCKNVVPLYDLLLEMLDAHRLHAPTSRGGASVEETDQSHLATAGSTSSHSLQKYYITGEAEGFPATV
UniProt P03372, 311-547 limits assumed, species assumed: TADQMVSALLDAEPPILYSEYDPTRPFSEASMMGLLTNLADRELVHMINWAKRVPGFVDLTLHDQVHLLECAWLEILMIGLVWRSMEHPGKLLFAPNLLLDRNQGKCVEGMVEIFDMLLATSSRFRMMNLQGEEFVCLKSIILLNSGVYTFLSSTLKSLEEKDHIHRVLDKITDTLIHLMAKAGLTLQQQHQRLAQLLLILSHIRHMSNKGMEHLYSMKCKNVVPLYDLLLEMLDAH

With `O=c1c2ccc(O)cc2c(-c2ccccc2)cn1-c1ccc(O)cc1` [Compound 15a, 6-hydroxy-2-(4-hydroxyphenyl)-4-phenylisoquinolin-1(2H)-one] the pEC50 (ER-alpha) was < 5.00.
In the case of `COc1ccc(-c2cn(-c3ccc(O)cc3)c(=O)c3c(O)cc(O)cc23)cc1` [Compound 15g, 6,8-dihydroxy-2-(4-hydroxyphenyl)-4-(4-methoxyphenyl)isoquinolin-1(2H)-one], the pKi (ER-α) was 7.20 and the pEC50 (ER-alpha) was < 5.00.

— US20130116277A1, “ALDO-KETO REDUCTASE SUBFAMILY 1C3 (AKR1C3) INHIBITORS” (priority 2007, published 2013)
